These results are taken from patent US7615356B2, “Ion channel assay methods” (Vertex Pharmaceuticals (San Diego) LLC, priority 2000, dated 2009).

By UniProt entry, the sequences of proteins in these tests, tags left out.
UniProt P04775, whole entry, looked up: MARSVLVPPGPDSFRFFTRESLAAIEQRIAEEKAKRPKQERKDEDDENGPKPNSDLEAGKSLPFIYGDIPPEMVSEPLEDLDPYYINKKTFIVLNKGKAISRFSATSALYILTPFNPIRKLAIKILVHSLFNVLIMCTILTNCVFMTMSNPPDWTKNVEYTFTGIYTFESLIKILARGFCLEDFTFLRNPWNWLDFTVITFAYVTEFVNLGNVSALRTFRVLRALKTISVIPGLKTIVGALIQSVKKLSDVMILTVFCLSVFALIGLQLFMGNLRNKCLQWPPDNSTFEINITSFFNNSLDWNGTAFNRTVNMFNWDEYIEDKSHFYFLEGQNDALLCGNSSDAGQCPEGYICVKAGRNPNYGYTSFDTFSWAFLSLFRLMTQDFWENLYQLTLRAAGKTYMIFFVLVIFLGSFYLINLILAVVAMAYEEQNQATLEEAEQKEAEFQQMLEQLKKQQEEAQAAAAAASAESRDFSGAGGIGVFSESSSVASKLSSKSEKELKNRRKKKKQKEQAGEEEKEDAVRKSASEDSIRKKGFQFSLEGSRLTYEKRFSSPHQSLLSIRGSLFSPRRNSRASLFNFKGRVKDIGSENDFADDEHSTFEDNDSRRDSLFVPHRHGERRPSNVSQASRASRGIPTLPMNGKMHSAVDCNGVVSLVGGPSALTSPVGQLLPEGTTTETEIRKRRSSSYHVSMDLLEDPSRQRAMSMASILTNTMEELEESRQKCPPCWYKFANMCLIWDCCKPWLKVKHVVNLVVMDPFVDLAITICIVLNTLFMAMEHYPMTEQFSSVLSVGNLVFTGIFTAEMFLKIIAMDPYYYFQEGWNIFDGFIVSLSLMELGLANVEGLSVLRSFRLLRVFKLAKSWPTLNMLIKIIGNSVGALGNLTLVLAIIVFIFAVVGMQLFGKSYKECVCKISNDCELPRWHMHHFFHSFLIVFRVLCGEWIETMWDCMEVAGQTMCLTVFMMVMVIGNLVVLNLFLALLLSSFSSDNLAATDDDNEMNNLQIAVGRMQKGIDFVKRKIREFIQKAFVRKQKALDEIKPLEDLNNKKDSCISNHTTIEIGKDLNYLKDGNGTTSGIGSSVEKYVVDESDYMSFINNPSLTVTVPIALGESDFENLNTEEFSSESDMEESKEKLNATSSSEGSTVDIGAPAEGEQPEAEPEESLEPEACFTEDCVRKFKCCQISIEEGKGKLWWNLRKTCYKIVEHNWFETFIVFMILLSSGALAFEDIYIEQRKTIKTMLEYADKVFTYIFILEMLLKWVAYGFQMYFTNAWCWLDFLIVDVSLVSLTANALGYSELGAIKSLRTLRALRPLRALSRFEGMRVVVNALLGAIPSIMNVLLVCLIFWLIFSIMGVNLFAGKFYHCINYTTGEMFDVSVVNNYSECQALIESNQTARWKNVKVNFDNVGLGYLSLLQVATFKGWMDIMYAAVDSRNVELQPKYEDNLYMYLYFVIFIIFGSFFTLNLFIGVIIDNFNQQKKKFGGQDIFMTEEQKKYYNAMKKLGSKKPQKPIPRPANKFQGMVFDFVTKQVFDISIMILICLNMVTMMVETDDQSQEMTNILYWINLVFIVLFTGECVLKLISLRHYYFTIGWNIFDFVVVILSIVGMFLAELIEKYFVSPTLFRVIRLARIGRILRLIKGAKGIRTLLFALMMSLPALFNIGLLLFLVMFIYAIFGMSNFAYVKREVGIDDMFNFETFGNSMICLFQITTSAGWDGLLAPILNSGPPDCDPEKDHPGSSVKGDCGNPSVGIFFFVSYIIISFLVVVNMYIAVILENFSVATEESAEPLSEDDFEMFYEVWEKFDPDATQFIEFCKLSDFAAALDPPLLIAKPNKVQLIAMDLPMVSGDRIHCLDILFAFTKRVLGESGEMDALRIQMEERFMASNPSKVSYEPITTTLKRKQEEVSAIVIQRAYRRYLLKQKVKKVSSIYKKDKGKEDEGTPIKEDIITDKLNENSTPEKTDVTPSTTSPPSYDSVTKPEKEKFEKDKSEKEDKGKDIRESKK
UniProt A0A8C2MK62, entry or part of it: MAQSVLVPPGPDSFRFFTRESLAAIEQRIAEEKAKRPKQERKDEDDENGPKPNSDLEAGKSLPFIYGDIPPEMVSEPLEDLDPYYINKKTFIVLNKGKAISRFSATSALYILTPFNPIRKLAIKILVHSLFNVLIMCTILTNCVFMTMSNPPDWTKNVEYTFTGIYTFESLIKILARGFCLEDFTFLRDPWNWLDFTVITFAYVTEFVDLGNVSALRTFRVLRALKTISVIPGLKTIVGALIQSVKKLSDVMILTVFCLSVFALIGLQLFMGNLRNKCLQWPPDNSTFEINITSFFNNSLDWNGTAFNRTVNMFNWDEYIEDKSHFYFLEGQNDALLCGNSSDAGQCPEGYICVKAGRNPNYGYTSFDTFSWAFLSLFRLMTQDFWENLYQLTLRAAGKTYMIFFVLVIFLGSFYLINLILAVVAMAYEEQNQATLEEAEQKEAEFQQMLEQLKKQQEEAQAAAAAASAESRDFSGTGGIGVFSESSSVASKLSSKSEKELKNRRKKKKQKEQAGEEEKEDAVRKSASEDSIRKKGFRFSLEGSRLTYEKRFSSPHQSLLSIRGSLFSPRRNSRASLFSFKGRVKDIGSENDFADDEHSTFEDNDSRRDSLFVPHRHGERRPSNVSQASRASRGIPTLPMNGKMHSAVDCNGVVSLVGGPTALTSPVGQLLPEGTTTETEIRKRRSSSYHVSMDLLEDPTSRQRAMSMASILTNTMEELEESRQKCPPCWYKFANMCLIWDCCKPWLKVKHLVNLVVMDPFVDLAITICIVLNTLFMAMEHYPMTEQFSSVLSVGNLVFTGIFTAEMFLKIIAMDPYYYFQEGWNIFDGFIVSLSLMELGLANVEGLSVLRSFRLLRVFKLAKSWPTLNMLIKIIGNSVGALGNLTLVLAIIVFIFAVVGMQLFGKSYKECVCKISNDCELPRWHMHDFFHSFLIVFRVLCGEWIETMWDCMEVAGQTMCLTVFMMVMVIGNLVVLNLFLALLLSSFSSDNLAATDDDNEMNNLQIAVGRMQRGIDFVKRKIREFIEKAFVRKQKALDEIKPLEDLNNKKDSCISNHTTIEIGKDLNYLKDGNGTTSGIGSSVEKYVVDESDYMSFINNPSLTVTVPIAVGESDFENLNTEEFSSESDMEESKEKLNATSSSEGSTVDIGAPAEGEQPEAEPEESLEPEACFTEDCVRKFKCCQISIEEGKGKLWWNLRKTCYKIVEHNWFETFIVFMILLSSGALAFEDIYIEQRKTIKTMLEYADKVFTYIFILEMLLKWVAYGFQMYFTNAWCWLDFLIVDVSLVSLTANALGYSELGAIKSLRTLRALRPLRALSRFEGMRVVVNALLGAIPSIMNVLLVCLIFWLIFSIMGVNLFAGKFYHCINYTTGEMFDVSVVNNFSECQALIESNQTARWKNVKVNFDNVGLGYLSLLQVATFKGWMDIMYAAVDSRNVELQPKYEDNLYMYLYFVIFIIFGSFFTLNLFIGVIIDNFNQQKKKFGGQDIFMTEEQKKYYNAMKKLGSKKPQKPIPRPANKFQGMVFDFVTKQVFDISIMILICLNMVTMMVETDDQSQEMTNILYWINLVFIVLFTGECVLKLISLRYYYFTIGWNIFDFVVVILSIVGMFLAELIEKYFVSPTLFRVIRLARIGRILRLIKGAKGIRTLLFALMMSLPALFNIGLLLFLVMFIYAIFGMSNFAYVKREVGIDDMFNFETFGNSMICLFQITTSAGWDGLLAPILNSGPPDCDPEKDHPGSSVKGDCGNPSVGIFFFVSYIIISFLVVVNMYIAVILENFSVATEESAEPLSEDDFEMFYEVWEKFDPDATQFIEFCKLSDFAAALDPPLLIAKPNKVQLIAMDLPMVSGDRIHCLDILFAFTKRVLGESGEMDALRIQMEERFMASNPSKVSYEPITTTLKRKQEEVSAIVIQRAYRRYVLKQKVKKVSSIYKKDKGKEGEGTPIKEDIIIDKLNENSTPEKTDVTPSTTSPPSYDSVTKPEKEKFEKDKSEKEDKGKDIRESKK

The target of test [1] is rat brain type IIa sodium channel (Rattus norvegicus, UniProt P04775). The settings on record: read-out: reported value (EC50); cited from earlier work.
For test [2], the target named is endogenous NaV channels of Chinese Hamster Ovary cells (Nav 1.2a) (Cricetulus griseus, UniProt A0A8C2MK62). The experiment in a line: Use-dependent block, repetitive electrical stimulation at 1 Hz, CHO cells. The class given is cell-based.

Take `NC1=N[C@H](O)[C@H]2[C@H]3O[C@]4(O)O[C@@H]([C@@H](O)[C@@]2(N1)[C@@H]4O)[C@]3(O)CO` [TTX, tetrodotoxin]: in test [1], the EC50 is 8 nM.
In the case of `COc1ccc(CCN2CCC(Nc3nc4ccccc4n3Cc3ccc(F)cc3)CC2)cc1` [astemizole], in test [2], the “Hill coeff. @ 1st peak” value is given as 2.67; the “Hill coeff. @ 20th peak” value is on record as 1.79; the “UDI (1 Hz), ratio of IC50(1st response) over IC50(20th response)” value was found to be 2.25; the “use-dependent block of endogenous NaV channels” value is listed as “decreased ratio of last peak response over first peak response”.

As usually defined, the EC50 is the concentration giving half of the maximal effect.
